Protein sequences, listed by entry. Tags and fused reporters are not part of them. Residues count along the entry.
UniProt P00740, 227-461: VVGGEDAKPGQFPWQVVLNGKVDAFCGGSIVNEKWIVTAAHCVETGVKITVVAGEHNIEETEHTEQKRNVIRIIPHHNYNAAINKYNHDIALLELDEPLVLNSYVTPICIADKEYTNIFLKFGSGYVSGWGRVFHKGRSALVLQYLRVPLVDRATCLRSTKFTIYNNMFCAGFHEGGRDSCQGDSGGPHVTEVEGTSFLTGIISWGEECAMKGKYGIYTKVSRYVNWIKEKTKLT
UniProt P00740, 47-191 partner: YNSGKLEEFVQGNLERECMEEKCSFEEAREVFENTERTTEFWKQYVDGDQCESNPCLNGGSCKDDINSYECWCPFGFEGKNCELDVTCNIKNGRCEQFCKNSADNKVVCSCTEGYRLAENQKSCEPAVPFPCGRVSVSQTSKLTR

In US8980916B2, “Factor IXa inhibitors” (Merck Sharp & Dohme Corp., priority 2011, dated 2015):

Biological target: human Factor IXa (Homo sapiens (Human), UniProt P00740)
Experiment: Factor IXa enzyme assay (SPECTROFLUOR FIXa fluorogenic substrate)
Type: biochemical
Settings: human Factor IXa 2.0 μg/ml, SPECTROFLUOR FIXa 100 μM, 60 minutes at room temperature, pH 8.0
Protocol: Inhibitory activity against Factor IXa was tested using the substrate SPECTROFLUOR FIXa (American Diagnostica Inc.; 500 West Avenue, Stamford, Conn. 06902 USA; Pr. No. 299F) and human Factor IXa (American Diagnostica Inc.; Pr. No. 449b). Test substances dissolved in buffer A (50 mM α,α,α-tris(hydroxymethyl)methylamine (Tris), 100 mM NaCl, 5 mM CaCl2, 15% (v/v) ethylene glycol, pH 8.0) were mixed with Factor IXa (2.0 μg/ml final concentration). The enzyme reaction was started by addition of SPECTROFLUOR FIXa (100 μM final concentration). After incubation for 60 minutes at room temperature, the reaction was stopped by the addition of 20% (v/v) acetic acid solution, and then fluorescence value measured (Excitation Wavelength: 355 nm, Emission Wavelength; 460 nm) in a microtiter plate reader (ARVO 1420 Multilabel Counter; PerkinElmer).
IC50 was calculated from a dilution series of the test substance with the aid of the software, Symix Assay Explorer (Symyx Technologies, Inc.).

**Q.** Nc1noc2cc(NC(=O)C(O)c3cccn(-c4ccc(OC(F)(F)F)cc4)c3=O)ccc12 (racemic) [Example 2, (±)-N-(3-aminobenzo[d]isoxazol-6-yl)-2-hydroxy-2-(2-oxo-1-(4-(trifluoromethoxy)phenyl)-1,2-dihydropyridin-3-yl)acetamide] was tested. Which IC50 did it give?
**A.** 8.6 µM
